Results published in PubChem BioAssay (Tox21).
“And” between values parts separate entries of the source, which are not always exact repeats. Equal values may be shown once. Only a part is listed here, and it is no random draw. The source made the active and inactive calls. Calls come from the whole dose curve; as a rule, active = well fitted curve in the direction sought with a large enough effect in the repeat runs; inconclusive = weak or mixed curves; inactive = flat fitted curve, though single readings scatter.

Assay: qHTS assay to test for compound auto fluorescence at 590 nm (red) in HEK293 cells (AID 720679)
Details: red autofluorescence 540/590 nm, at 18.6 µM (top of the series)
From the text: National Center for Advancing Translational Sciences [NCATS]
NIH Chemical Genomics Center [NCGC]
U.S. Environmental Protection Agency [EPA]
National Institutes of Environmental Health Sciences [NIEHS]
National Toxicology Program [NTP]
U.S. Food and Drug Administration [FDA]
Compound auto fluorescence often interferes with screening of the compound library against various biological targets and signaling pathways. Some of these compounds may have fluorophoric properties. Such properties may interfere with the assay outputs resulting in false positives and/or negatives. To decrease such complications and ensure the compound activities are relevant in terms of biological response, the Tox21 10K compound library was screened for auto fluorescence.
From the fluorophores used as reporter signals in our screening assays, the auto fluorescence equivalencies of compounds against three fluorophores have been evaluated: Triamterene, Fluorescein and Rose Bengal sodium for blue, green and red fluorescence, respectively. The fluorescence intensities were measured using Excitation/Emission wavelengths at 405/460nm, 485/535nm and 540/590nm for blue, green and red labels, respectively. This assay includes the red fluorescence data.
Tox21 Assay Protocol Summary:
2,000 HEK293 cells in 5 uL of culture medium containing 10% dialyzed FBS per well were dispensed into black wall/clear bottom 1536-well plates using a Multidrop Combi Dispenser (Thermo Scientific). The assay plates were incubated for 4-5 hr at 37C to allow cell attachment to the well bottom, followed by the transfer of 23 nL compound or DMSO vehicle by a pintool work station (Kalypsys, San Diego, CA). After the assay plates were incubated overnight at 37C and 5% CO2, fluorescence intensities in the assay plates were measured by an Envision (PerkinElmer, Shelton, CT) plate reader using three labels for measuring blue, green and red fluorescence at […] 460, 535 and 590nm respectively.
% is set by controls: 0 for no effect and ±100 for the full control effect.

SMILES | fluorescence, % of fluorescent control
C/C1=C2N=C(/C=C3N=C(/C(C)=C4\[N-][C@@](C)([C@@H]5N=C1[C@](C)(CCC(=O)NC[C@@H](C)OP(=O)([O-])O[C@H]1[C@@H](O)[C@@H](n6cnc7cc(C)c(C)cc76)O[C@@H]1CO)[C@H]5CC(N)=O)[C@@](C)(CC(N)=O)[C@@H]4CCC(N)=O)[C@@](C)(CC(N)=O)[C@@H]\3CCC(N)=O)C(C)(C)[C@@H]/2CCC(N)=O.[C-]#N.[Co+3] | inactive: -1.2%

Same assay, conditions: red autofluorescence 540/590 nm, at 46 µM (top of the series)

SMILES | fluorescence, % of fluorescent control
CC(C)N(CCCl)C(C)C | inactive: 0.0982%
CC(C)OP(=O)(F)OC(C)C | inactive: 0.2%
O=[N+]([O-])OCC(CO[N+](=O)[O-])(CO[N+](=O)[O-])CO[N+](=O)[O-] | inactive: -0.789%
CCOP(=O)(CC)Oc1ccc([N+](=O)[O-])cc1 (stereo not given) | inactive: -0.0077%
O=[N+]([O-])c1cccc([N+](=O)[O-])c1 | inactive: -0.0004%
O=[N+]([O-])[O-].[NH4+] | inactive: -0.021%
OCCSCCO | inactive: -0.0624%
CN(C)CCS | inactive: -0.169%

Same assay, conditions: red autofluorescence 540/590 nm, at 91.3 µM (top of the series)

SMILES | fluorescence, % of fluorescent control
[NH4+].[O-][Cl+3]([O-])([O-])[O-] | inactive: 0.34%
O=[N+]([O-])OCC(CO[N+](=O)[O-])(CO[N+](=O)[O-])CO[N+](=O)[O-] | inactive: -0.321%
O=[N+]([O-])[O-].[NH4+] | inactive: -0.0708% and inactive: -0.571%
Cc1ccc([N+](=O)[O-])cc1[N+](=O)[O-] | inactive: 0.175% and inactive: 0.246%
CC(C)OP(C)(=O)OC(C)C | inactive: -0.136% and inactive: -0.0796%
COP(C)(=O)OC | inactive: -0.109%
Cc1ccc([N+](=O)[O-])c([N+](=O)[O-])c1 | inactive: -1.06%
Cc1cccc([N+](=O)[O-])c1[N+](=O)[O-] | inactive: 0.91%
CCOP(=O)(CC)OCC | inactive: 0.454%
CP(=O)(O)OCCC[Si](O)(O)O | inactive: -0.137%
Cc1c([N+](=O)[O-])cccc1[N+](=O)[O-] | inactive: 0.0338% and inactive: 0.0323%
COc1ccc([N+](=O)[O-])cc1[N+](=O)[O-] | inactive: -0.108%
CC(C)N(CCO)C(C)C | inactive: 0.336%

Same assay, conditions: red autofluorescence 540/590 nm, at 95.7 µM (top of the series)

SMILES | fluorescence, % of fluorescent control
[NH4+].[O-][Cl+3]([O-])([O-])[O-] | inactive: -0.29%
O=[N+]([O-])c1cccc([N+](=O)[O-])c1 | inactive: -0.959%
COP(C)(=O)OC | inactive: 0.157%
Cc1ccc([N+](=O)[O-])c([N+](=O)[O-])c1 | inactive: 0.113%
OCCSCCO | inactive: -0.378%
Nc1cc([N+](=O)[O-])cc([N+](=O)[O-])c1O | inactive: -0.524%
CCN(CC)CCCl | inactive: -0.0195%
N=C(N)N[N+](=O)[O-] | inactive: -0.155%
